Data: paper PMC8805583, “Discovery of Herbacetin as a Novel SGK1 Inhibitor to Alleviate Myocardial Hypertrophy” (Advanced Science, 2021)

Molecular target: T1, SGK1 (Homo sapiens, UniProt O00141)
T1 sequence (O00141 1-431): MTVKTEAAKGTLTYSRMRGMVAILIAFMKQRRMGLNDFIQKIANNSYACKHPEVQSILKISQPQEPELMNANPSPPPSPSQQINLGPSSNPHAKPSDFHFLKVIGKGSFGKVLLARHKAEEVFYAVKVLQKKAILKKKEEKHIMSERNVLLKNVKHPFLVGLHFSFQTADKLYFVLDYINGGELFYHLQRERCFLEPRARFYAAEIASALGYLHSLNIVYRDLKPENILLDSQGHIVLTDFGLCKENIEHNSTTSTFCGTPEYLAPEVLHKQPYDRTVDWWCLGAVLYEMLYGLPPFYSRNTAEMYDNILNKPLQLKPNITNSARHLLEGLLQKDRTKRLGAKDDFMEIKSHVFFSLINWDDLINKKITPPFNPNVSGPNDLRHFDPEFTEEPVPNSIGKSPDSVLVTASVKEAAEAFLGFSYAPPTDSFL
Assay: Mass spectrometry-based SGK1 kinase inhibitory assay (LC/MS of phosphorylated […])
Type: biochemical
Source text: To identify active compounds with SGK1 inhibitory activity from Ext.R, a novel mass‐spectrometry based kinase inhibitory assay was developed. A polypeptide sequence ([…], m/z: 618.6) derived from glycogen Synthase Kinase‐3(GSK3), a known substrate of SGK1, was optimized and synthesized. We subsequently used liquid chromatography coupled with mass spectrometry (LC/MS) to detect and quantify its phosphorylation level ([…](p)FAE, m/z:658.7) (Figure 3A).^[ [26] ^] Basal level SGK1 was supplemented to each well, and the peak area of phosphorylation was measured in the presence or absence of testing compounds. […]
Synthesis of […] was prepared by Shanghai Sangong Biotech. […] Reactions were terminated by the addition of methyl alcohol with 0.1% trifluoroacetic acid (TFA), and supernatants were analyzed by the Agilent 1100 LC system (Agilent Technologies, USA) and a 1946D single quadrupole mass spectrometer. […] A minimum of three replicates of each sample were analyzed and averaged together. Inhibition of SGK1 was calculated by the following equation (1) Inhibitionrate%=PC−PS/PC P C and P S represented the peak area of product peptide in the control group without test compounds and the tested sample group with various test compounds, respectively.

Substance: Rhodiosin
- IC50: 6.62 µM
